Laboratory results from ChEMBL document CHEMBL4265950, “Discovery of furyl/thienyl β-carboline derivatives as potent and selective PDE5 inhibitors with excellent vasorelaxant effect” (Eur J Med Chem, 2018).

Protein sequences, listed by entry. Tags and fused reporters are not part of them. Lines headed by an entry give the natural chain unless they say otherwise; changes in a name come on top.
UniProt P27815: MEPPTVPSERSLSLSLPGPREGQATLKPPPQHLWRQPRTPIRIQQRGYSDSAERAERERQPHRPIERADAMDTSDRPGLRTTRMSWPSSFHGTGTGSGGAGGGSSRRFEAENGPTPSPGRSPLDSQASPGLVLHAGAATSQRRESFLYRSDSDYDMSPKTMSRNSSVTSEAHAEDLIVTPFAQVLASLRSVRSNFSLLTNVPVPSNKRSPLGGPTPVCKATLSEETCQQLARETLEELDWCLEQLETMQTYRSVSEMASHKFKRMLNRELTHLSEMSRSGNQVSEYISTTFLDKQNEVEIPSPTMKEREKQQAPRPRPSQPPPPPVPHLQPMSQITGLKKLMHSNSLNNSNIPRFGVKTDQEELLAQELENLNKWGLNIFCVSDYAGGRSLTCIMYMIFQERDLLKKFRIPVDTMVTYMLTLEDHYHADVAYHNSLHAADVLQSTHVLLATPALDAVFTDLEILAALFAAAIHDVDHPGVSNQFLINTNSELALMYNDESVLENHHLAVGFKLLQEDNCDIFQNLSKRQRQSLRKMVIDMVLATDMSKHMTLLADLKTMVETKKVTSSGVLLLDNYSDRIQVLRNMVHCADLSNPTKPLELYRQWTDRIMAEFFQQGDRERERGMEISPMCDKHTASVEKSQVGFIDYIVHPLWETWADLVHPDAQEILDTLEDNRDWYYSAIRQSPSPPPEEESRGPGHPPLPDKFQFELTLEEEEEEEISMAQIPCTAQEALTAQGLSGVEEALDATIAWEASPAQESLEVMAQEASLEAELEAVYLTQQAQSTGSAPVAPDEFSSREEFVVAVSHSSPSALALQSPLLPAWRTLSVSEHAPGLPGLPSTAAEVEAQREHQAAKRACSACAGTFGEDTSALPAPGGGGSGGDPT

Molecular target: 3',5'-cyclic-AMP phosphodiesterase 4A (Homo sapiens, UniProt P27815)
Assay: Inhibition of full length recombinant human N-terminal GST-tagged PDE4A1A expressed in baculovirus infected sf9 cells using FAM-cyclic-3',5-AMP as substrate after 1 hr by fluorescence polarization assay
Summary of the method: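 Fluorescence polarization assay run at 25 °C for 60 min in 40 mM MOPS pH 7.5, 0.5 mM EDTA, 15 mM MgCl2, 0.15 mg/mL BSA, 1 mM DTT, 0.05% ProClin 200. Contained 15 ng/mL PDE isoform and 100 nM FAM-cGMP or FAM-cAMP according to isoform, with 1% DMSO final. Binding agent added for 1 h at 25 °C; read at […] nm. IC50 from normalized nonlinear dose-response fit.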

IC50: > 10 µM
Structure (SMILES): CN1CC(=O)N2[C@H](c3ccc4c(c3)OCO4)c3[nH]c4ccccc4c3C[C@@H]2C1=O
